# Laboratory results as given in PubChem BioAssay AID504891 (National Center for Advancing Translational Sciences (NCATS), 2011).
# Sequences of proteins named here, by UniProt entry; tags and fusion partners are left off.
# UniProt Q13526, whole entry: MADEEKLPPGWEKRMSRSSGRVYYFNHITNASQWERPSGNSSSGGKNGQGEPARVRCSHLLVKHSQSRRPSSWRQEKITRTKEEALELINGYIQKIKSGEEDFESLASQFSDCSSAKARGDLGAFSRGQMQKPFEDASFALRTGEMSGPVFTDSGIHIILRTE
# This is a selection; strong and weak results do not stand in their true shares. Results filed as inconclusive are left out. Calls of active or inactive are those of the source. The call rests on the fitted dose curve; in most records, active means well fitted inhibition curve with a large enough effect in the polarisation, with a control signal flat (not every such curve was filed as active); inconclusive means small, poorly fitted or top-dose-only effect, or effect the other way, or a change in a side signal; inactive means no such curve, though single readings can be large or run the other way; the % refers to the polarisation.
# Molecular target: Peptidyl-prolyl cis-trans isomerase NIMA-interacting 1 (Homo sapiens) (UniProt Q13526)
# Assay: qHTS Assay to Find Inhibitors of Pin1
# Details: Pin1 FP peptide displacement, HiFluor488, 10 min; at 115 µM (top of the series)
# On the % scale 0 is the no-effect control and ±100 the full control effect.
row,Compound,"activity, negative = inhibition"
1,CCC(=O)N(c1ccccc1)C1(COC)CCN(CCn2nnn(CC)c2=O)CC1,inactive: -10.9%
2,CCC(=O)N(c1ccccc1)C1(COC)CCN(CCc2cccs2)CC1,inactive: -23%
